This is an account of results in patent US5030634A, “10-deazaaminopterin: a new arthritis remittive drug” (priority 1990, dated 1991).

The test relates to rheumatoid arthritis patients. The experiment in a line: Double-blind clinical trial of 10-deazaaminopterin versus methotrexate in rheumatoid arthritis: efficacy evaluation. The format is in vivo, human. Particulars: double blind trial in humans.

Entries after “also recorded” stand apart in the source; their conditions may differ.

As to `Nc1nc(N)c2nc(CCc3ccc(C(=O)NC(CCC(=O)O)C(=O)O)cc3)cnc2n1` (stereo not shown) [10-deazaaminopterin], the “Efficacy versus methotrexate in rheumatoid arthritis (in words)” value is “at least equally effective in all respects to methotrexate in the treatment of rheumatoid arthritis, and clearly superior to methotrexate in controlling pain, joint stiffness and in improving grip strength; also recorded: equally effective as methotrexate and in certain clinical parameters such as grip strength, pain and morning stiffness superior to methotrexate”.
